Reference: patent US6596499B2, “Membrane molecule indicator compositions and methods” (The Netherlands Cancer Institute, priority 2000, dated 2003)

Chains of the proteins cited; added tags and fusions are not shown.
UniProt P21452, whole entry: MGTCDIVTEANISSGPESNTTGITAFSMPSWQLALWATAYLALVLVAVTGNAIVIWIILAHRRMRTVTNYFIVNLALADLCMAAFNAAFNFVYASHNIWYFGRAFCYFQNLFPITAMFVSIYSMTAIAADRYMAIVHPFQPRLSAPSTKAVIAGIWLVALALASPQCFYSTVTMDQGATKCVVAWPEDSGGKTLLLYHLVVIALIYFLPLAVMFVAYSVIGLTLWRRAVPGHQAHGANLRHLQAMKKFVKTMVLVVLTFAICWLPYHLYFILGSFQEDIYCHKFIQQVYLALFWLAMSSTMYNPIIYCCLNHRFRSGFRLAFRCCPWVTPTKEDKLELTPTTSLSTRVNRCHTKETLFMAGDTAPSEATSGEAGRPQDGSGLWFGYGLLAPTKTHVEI

Molecular target: wild-type human NK2 receptors (Homo sapiens, UniProt P21452)
Conditions: short pulses of agonist from puffer pipette, n=60

Substance: neurokinin A [NKA]
- decay of translocation response between stimuli: 45 ± 7 s
